Measurements published in PubChem BioAssay AID2732 (Emory University Molecular Libraries Screening Center, 2010).
The list shows a part of the results, in another mix than the full data. Calls of active or inactive are those of the source.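 How the source made its calls: active means compounds that reduced the stress-induced luciferase reporter signal by more than about 70% of percent inhibition (limit read from the data); inactive means the rest.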

assay: blockers of ER-stress CHOP reporter expression – cell-based, unfolded protein response, luciferase reporter, primary screen (AID 2732); settings: CHO-K1 CHOP-promoter luciferase, tunicamycin-induced, 15-18 h; at 10 µM; stronger effect = higher value;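 further: 0% = tunicamycin plus vehicle and 100% = wells without tunicamycin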

| Compound | inhibition |
| --- | --- |
| O=C(OC1CN2CCC1CC2)c1cccc(Cl)c1 (centres undefined) | inactive: 22.7% |
| Nc1ccc([As](=O)(O)c2ccc([N+](=O)[O-])cc2)cc1 | inactive: 18.3% |
| C(Cc1nn[nH]n1)Cc1nn[nH]n1 | inactive: -15.6% |
| O=P(Nc1ccccn1)(c1ccc(Br)cc1)c1ccc(Br)cc1 | inactive: 2.55% |
| O=P(Nc1nc2ccccc2s1)(c1ccccc1)c1ccccc1 | inactive: -7.56% |
| C[C@H]1OP(=O)(Oc2ccccc2)[C@H](O)[C@H](O)[C@H]1N=[N+]=[N-] (some centres undefined) | inactive: -0.04% |
| CC(C)C(=O)NC(Sc1ccccc1)C(Cl)(Cl)Cl (centres undefined) | inactive: 8.36% |
| O=P(Nc1nccs1)(c1ccccc1)c1ccccc1 | inactive: 8.18% |
| c1nnnn1CCn1cnnn1 | inactive: -19.5% |
| C[C@@H]1C=CCP(=O)(Oc2ccccc2)O1 (some centres undefined) | inactive: 15.6% |
| C[C@H]1OP(=O)(Oc2ccccc2)C[C@@H]2O[C@@H]21 (some centres undefined) | inactive: 2.92% |
| CC(=O)Nc1ccc([As](=O)(O)O)c(O)c1 | inactive: 2.14% |
| CC(=O)Nc1ccc(Oc2c([N+](=O)[O-])cc([N+](=O)[O-])cc2[N+](=O)[O-])cc1 | inactive: 6.68% |
| O=P1(Nc2nc3ccc(Cl)cc3s2)COc2ccccc2O1 (centres undefined) | inactive: 9.51% |
| CCOc1ccc(C2=NCC(CBr)S2)cc1 (centres undefined) | inactive: 15.1% |
| CC(C)(C)C(=O)NC(Sc1ccccc1)C(Cl)(Cl)Cl (centres undefined) | inactive: 42.4% |
| CN(C(=O)Cc1ccc(Cl)c(Cl)c1)[C@@H]1CCCC[C@@H]1N1CCCC1 | inactive: -0.75% |
| CCC(=O)N1C2C3N(C(=O)CC)C1C1N(C(=O)CC)C(C(N1C(=O)CC)N3C(=O)CC)N2C(=O)CC | inactive: -5.06% |
| COC(=O)c1cc2c(s1)N=C(c1ccccc1)N(C)P2(=O)N1CCOCC1 (centres undefined) | inactive: -3% |
| CC(=O)NC(SC(=S)N(CC(C)C)CC(C)C)C(Cl)(Cl)Cl (centres undefined) | inactive: 35.6% |
| Cc1ccc(OP(=O)(Nc2ccccn2)Oc2ccc(C)cc2)cc1 | inactive: 21.5% |
| Cc1ccccc1OP(=O)(Nc1ccccn1)Oc1ccccc1C | inactive: 9.81% |
| CN(C)C(=O)Oc1noc2ccccc12 | inactive: -23.6% |
| O=c1c2cc([N+](=O)[O-])ccc2[nH]c2c([N+](=O)[O-])cc([N+](=O)[O-])cc12 | active: 107% |
| c1ccc(-c2nn[nH]n2)c(-c2nn[nH]n2)c1 | inactive: 7.06% |
| Cc1ccc(NP(=O)(Oc2cccc(C)c2)Oc2cccc(C)c2)nc1 | inactive: -2.12% |
| CCOC(=O)NC(Sc1ccccc1)C(Cl)(Cl)Cl (centres undefined) | inactive: 53.9% |
| CCNC(=S)/N=C(\N)N[N+](=O)[O-] | inactive: 9.52% |
| O=C(NC1CCS(=O)(=O)C1)NP(=S)(Oc1ccccc1)Oc1ccccc1 (centres undefined) | inactive: 29.8% |
